The record followed here is patent US20130261165A1, “PREVENTION AND TREATMENT OF DISEASES CHARACTERIZED BY MESENCEPHALIC DOPAMINERGIC NEURON CELL DEATH” (THE MCLEAN HOSPITAL CORPORATION, priority 2010, published 2013).

The subject of one test is En-1. The experiment in a line: En-1 mRNA expression by qPCR in primary ventral midbrain cultures. The note with it: primary ventral midbrain cells of E12 CD1 mice, 10 μM for 24 hours, qPCR vs 18S. In general terms: In qPCR the cycle at which signal appears reflects the starting amount.
The next test relates to FoxA2. The experiment in a line: FoxA2 mRNA expression by qPCR in primary ventral midbrain cultures. The note with it: primary ventral midbrain cells of E12 CD1 mice, 10 μM for 24 hours, qPCR vs 18S.

With `CCCCC1C(=O)N(c2ccccc2)N(c2ccccc2)C1=O` [Phenolbutazone], the “Fold Increase in En-1 Expression” value with En-1 worked out at 1.82 Fold. Besides, the “Fold Increase in FoxA2 Expression” value with FoxA2 turned out to be 2.21 Fold.
